Here are results for one substance from patent publication US20260077056A1, “LINKER-PAYLOAD COMPOUND, CONJUGATES AND APPLICATIONS THEREOF” (priority 2022, published 2026).

The subject of one experiment is Capan-1 xenograft. In words: In vivo efficacy in Capan-1 CDX model. Also noted: species or system female BALB/c nude mice.
Experiment [1] relates to NCI-N87 human gastric cancer cells. Briefly: In vivo efficacy in NCI-N87 CDX model. As to conditions: 5 mg/kg. Set-up: species or system female BALB/c nude mice. As for the experimental part:
NCI-N87 human gastric cancer cells were implanted into the right flank of female BALB/c nude mice. The animals were randomly divided into 4 groups with 5 tumor-bearing mice in each group on day 6 after tumor inoculation. […] Tumor volume was measured twice weekly in two dimensions using a caliper, and the volume was expressed in mm^3 using the formula: V=0.5 a×b^2 where a and b are the long and short diameters of the tumor, respectively. The body weight of the mice were measured twice a week, and abnormal behavior was observed daily such as mobility, food and water consumption.
The T/C (%) value is calculated for each group using the formula: T/C %=TRTV/CRTV×100% (TRTV: treatment group RTV; CRTV: control group RTV; RTV: relative tumor volume). The RTV=Vt/V0, V0 is the average tumor volume on the first day of treatment, VT is the average tumor volume on a given day, the data of TRTV is from the same day as CRTV.
TGI is calculated for each group using the formula: TGI (%)=[1−(Ti−T0)/(Vi−V0)]×100; Ti is the average tumor volume of a treatment group on a given day, T0 is the average tumor volume of the treatment group on the first day of treatment, Vi is the average tumor volume of the vehicle control group on the same day with Ti, and V0 is the average tumor volume of the vehicle group on the first day of treatment.

Consider Enhertu, for which the “tumor inhibition effect, in words” value is recorded as “obviously tumor inhibition effect” in the experiment with Capan-1 xenograft (Capan-1 CDX model) and “excellent tumor inhibition effect” in experiment [1] (NCI-N87 CDX model). Moreover, the “T/C (%)” value with Capan-1 xenograft (Capan-1 xenograft, PG-D35) was 8.23%; in experiment [1] (NCI-N87 xenograft, PG-D35) it was 12.81%. In addition, in experiment [1] (NCI-N87 xenograft, PG-D35), the “TGI (%)” value was found to be 103.79%. Besides, in experiment [1] (NCI-N87 xenograft, PG-D35), the “Tumor volume (mm^3) on day 35” value stood at 148 ± 55 mm^3.
